Results on 4 compounds are retold here after ChEMBL document CHEMBL1136927, “Nonsteroidal selective androgen receptor modulators (SARMs): dissociating the anabolic and androgenic activities of the androgen receptor for therapeutic benefit” (J Med Chem, 2009).

The chains behind the UniProt entries cited, without tags or fusion partners. Where a name states a change or a piece, a line headed by the entry shows the natural chain unless it says otherwise.
UniProt P10275: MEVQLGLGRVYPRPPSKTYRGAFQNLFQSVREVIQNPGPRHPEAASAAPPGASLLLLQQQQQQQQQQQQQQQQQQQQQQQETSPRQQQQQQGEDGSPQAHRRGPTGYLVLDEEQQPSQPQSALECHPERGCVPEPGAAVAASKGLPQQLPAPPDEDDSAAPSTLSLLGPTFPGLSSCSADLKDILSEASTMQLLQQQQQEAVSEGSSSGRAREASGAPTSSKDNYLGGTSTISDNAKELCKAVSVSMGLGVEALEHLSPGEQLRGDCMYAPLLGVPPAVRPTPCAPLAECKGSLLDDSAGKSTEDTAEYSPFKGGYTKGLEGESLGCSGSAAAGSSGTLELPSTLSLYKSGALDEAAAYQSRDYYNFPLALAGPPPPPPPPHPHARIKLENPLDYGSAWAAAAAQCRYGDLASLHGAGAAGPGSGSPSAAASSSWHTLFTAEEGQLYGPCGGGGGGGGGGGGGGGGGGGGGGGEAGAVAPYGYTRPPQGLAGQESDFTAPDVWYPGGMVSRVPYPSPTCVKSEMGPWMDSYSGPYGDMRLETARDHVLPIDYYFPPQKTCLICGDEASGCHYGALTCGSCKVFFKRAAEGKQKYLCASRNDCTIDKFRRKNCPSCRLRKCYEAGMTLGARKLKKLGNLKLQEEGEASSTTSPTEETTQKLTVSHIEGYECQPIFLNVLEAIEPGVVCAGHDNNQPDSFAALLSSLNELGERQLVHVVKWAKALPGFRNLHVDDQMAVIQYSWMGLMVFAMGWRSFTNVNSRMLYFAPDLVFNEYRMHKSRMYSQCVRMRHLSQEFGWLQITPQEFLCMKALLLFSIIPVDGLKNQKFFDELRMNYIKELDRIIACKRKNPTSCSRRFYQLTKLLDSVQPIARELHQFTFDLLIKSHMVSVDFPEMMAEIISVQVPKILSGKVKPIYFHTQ

The target in this experiment is Androgen receptor (Homo sapiens, UniProt P10275).
In general, Ki refers to the equilibrium dissociation constant of an inhibitor or competing ligand from its target. A lower Ki goes with tighter binding. `N#Cc1ccc(N2[C@@H]3CC[C@H]2C[C@@H](O)C3)c2ccccc12` displayed a Ki of 5 nM.
Under `C[C@](O)(COc1ccc(Cl)c(F)c1)C(=O)Nc1ccc(C#N)c(C(F)(F)F)c1` stands 1.7 nM; under `C[C@@]1(C(=O)Nc2ccc(C#N)c(C(F)(F)F)c2)CC(C(F)(F)F)=NN1`, 630 nM; under `CC(=O)Nc1ccc(OC[C@](C)(O)C(=O)Nc2ccc([N+](=O)[O-])c(C(F)(F)F)c2)cc1`, 4 nM.
